For the assay the following is noted: A516 after 15 min.

SMILES strings stand for the structures.

As to `O=C1O[C@H]([C@@H](O)CO)C(O)=C1O` [L-ascorbic acid], the “concentration required for scavenging 50% of DPPH (IC50)” value turned out to be 5.803 µg/mL.
